Source: PubChem (National Center for Advancing Translational Sciences (NCATS))
Rango release inh – prevents RanGTP from dissociating the Rango-importin beta complex; O95149+P62826; Biochemical FRET Rango-importin beta, RanGTP-induced dissociation; Potency, µM (highest dose often 46.1 µM), for the others: at the highest dose activity change, negative = inhibition; 0.071% of 340,000 active; calls by dose curve; note: potency is the fitted concentration of half-maximal effect; % of control where 0% means no effect; nearly all actives have a fitted effect of over 45% in size
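Rango (0.1 uM)–importin beta (0.25 uM) complex; RanGTP-RCC1 trigger; 45 min RT; CFP/YFP FRET read.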
A-T KAP1 phos – candidate therapy for ataxia-telangiectasia. Potency, µM (top dose mostly 57.5 µM), for inactives: at the highest dose activation, most hits filed as activators. F2112 A-T fibroblasts, KAP-1 phosphorylation AlphaLISA; neocarzinostatin DNA damage 30 min before lysis. 0.19% of 320,000 active; note: potency is the fitted concentration of half-maximal effect; % of control where 0% means no effect; nearly all actives have a fitted effect of over 45% in size
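ATM-like activity read as KAP-1 phosphorylation via AlphaLISA donor/acceptor antibody pairs after lysis and 6 hr at 25C. Cells were ATM-null patient fibroblasts (F2112, hTERT), dosed 60 min, then exposed to the DSB inducer NCS for 30 min.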
PKM2 activator – PKM2 (human) enzyme activation. AID 1631. P14618. 0.34% of 260,000 active. Potency, µM (top dose mostly 57.5 µM), for the others: top-dose activation, hits mostly activators. purified PKM2, Kinase-Glo ATP luminescence, activation; response scale: 0% is enzyme alone, no compound; note: potency is the fitted concentration of half-maximal effect; % is set by controls: 0 for no effect and ±100 for the full control effect; nearly all actives have a fitted effect of over 55% in size
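ATP formation by purified human PK-M2, quantified via coupled luciferase luminescence after 1 h at room temperature with 0.1 mM ADP and 0.5 mM PEP final.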
Rango complex inh – inhibitors of Rango-importin beta complex formation; Q14974; Rango CFP/YFP FRET sensor + importin beta, 45 min; Potency, µM (top dose mostly 92.2 µM), for inactives: at the highest dose inhibition of complex formation; 0.031% of 340,000 active; AID 540263; calls by dose curve;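 note: potency is the fitted concentration of half-maximal effect; 0% = DMSO wells and 100% = buffer wells lacking importin beta; nearly all actives have a fitted effect of over 15% in size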
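FRET biosensor Rango (snurportin 1 IBB between N-terminal EYFP and C-terminal Cerulean), 50 nM in PBS/1 mM DTT/0.02% Tween-20/0.1% BSA, preincubated 5 min RT with compound; 0.125 microM importin beta added, 45 min RT, CFP/YFP FRET ratio read.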
IL-2 act – activates IL-2 in a cell-based reporter assay | activation, % (series mostly up to about 46 µM) | IL-2 activation reporter assay, cell-based qHTS; stimulated with anti-CD3/CD4/CD28 beads; in transgenic mouse T cells | 0.065% of 360,000 active; in the data active = activation above about 50%; inconclusive = mostly about 30% to 49%; note: 0% is about no effect
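Readout: EGFP and DsRed signals by fluorescent plate cytometry. Unstimulated transgenic mouse T cells received compound 60 min before antibody-bead stimulation, then incubated 18 h at 37 degrees C.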
HeLa viability – HeLa cytotoxicity, CellTiter-Glo readout; shares compounds with PKM2 activator; HeLa viability, CellTiter-Glo ATP luminescence, 24 h; activity change, negative = cytotoxicity, % at 57.5 µM; 230 tested, under 10 active; AID 1898; note: % of control where 0% means no effect
Starred values were filed as active, the others as inactive; ? = inconclusive; . = no result given; [ ] = dose if it differs, or a comment. Hits are enriched below; roughly 0.59% of the tested compounds scored in any of these assays. Unless noted, calls come from the whole dose curve; as a rule, active = well fitted curve in the direction sought with a large enough effect; inconclusive = small, poorly fitted or top-dose-only effect, or another doubt; inactive = no such curve, though single readings can be large; an effect the other way counts as inactive or inconclusive.

SMILES	Rango release inh	A-T KAP1 phos	PKM2 activator	Rango complex inh	IL-2 act	others
O=C(C1=C(O)C(=O)N(c2nc3ccc(Cl)cc3s2)C1c1ccco1)c1ccco1 (stereo unspecified)	16.4µM*	-12.4%	.	?	0.0
N#CC(=C=[N-])c1nc2ccccc2nc1-[n+]1cccc(NC(=O)c2cccs2)c1	2.3%	-0.9%	0.6%	-1.6%	0.9
O=C(NCCc1ccccc1F)C1C(=O)Nc2ccccc2C(=O)N1C1CCCCC1 (stereo unspecified)	.	.	.	.	-1.0
Cc1ccccc1-c1cc(=O)c2c(O)cccc2o1	3.6%	39.8µM*	5.6%	-0.2%	-0.1
CC1(C)OC(=O)C2=C(C[C@@H](CCc3ccccc3)O[C@H]2C2CCCC2)O1	.	.	.	.	-1.2
N#Cc1nc(COc2ccccc2Cl)oc1NCc1cccnc1	20.6µM*	?	-4.7%	?	-1.2
N#Cc1nc(COc2ccccc2Cl)oc1NCc1ccc(F)cc1	?	5.5%	14.7%	-4.4%	-1.9
Nc1c(C(=O)N/N=C/c2cccnc2)oc2nc(-c3ccccc3)cc(-c3ccco3)c12	?	-12.3%	8.1%	?	318.4*
Nc1c(C(O)(C(F)(F)F)C(F)(F)F)ccc2ccccc12	-6.5%	28.2µM*	2.5%	1.5%	-0.6
O=C(CSc1ccc2ccccc2c1)N1CCN(c2ccc(O)cc2)CC1	0.2%	25.1µM*	27.0%	-0.3%	-1.5
Cn1c(-c2ccccc2)nc2cnccc21	-24.2%	20µM*	-8.4%	-3.9%	-1.5
COC(=O)[C@]12CCCCC=C1N(CCC1=CCCCC1)C(=O)[C@H](CC(=O)NCCC(C)C)C2	.	.	.	.	-0.6
CCc1ccccc1N=Cc1c(C)c(C#N)c2[nH]c3ccccc3n2c1=O	-16.2%	.	.	?	123.4*
CCCCc1c(C)c(C#N)c2[nH]c3ccccc3n2c1=O	-8.2%	-2.7%	0.6%	0.4%	-0.4
CCCCNc1c(-c2ccc(SC(C)CC)cc2)nc2cnccn12 (stereo unspecified)	?	28.2µM*	.	?	-3.5
CCc1nc(C)cc2c1sc1ccccc12	7.0%	20µM*	-6.1%	1.2%	-0.3
CN(Cc1ccccc1)C(=O)c1cccc(N2C(=O)C3CC=CCC3C2=O)c1 (stereo unspecified)	-10.8%	3.16µM*	.	-0.9%	-2.5
CCCn1c(C)nc2c(NCCCN(CC)CC)nc(C)nc21	.	.	-4.7%	.	.
CCOc1ccc(NC(=O)C(Cc2ccccc2)N2C(=O)c3cccc4cccc(c34)C2=O)cc1 (stereo unspecified)	1.7%	6.1%	-4.0%	12.0%	96.9*
O=c1c2ccccc2[nH]c(=S)n1Cc1cccnc1	-17.7%	4.0%	25.1µM*	-1.1%	-1.2
Cc1cc(C)c(C#N)c(SCC(=O)Nc2nonc2N)n1	-16.9%	11.1%	14.1µM*	?	-1.2
CC(=O)Nc1ccc(OCC(O)Cn2nc(C)c(C)c2C)cc1 (stereo unspecified)	14.8%	0.0%	.	0.2%	-1.5
Nc1c(C(=O)Nc2nccs2)sc2nc(-c3cccs3)cc(C(F)(F)F)c12	?	16.7%	5.8%	?	104.2*
N#Cc1c(C(F)(F)F)cc(-c2ccco2)nc1SCc1ccccn1	-12.8%	.	2.9%	36.6µM*	3.6
Cc1ccc(/C=C2\SC(=S)N(CCCC(=O)Nc3ccccn3)C2=O)cc1	6.5%	-6.9%	0.9%	0.8%	-4.6
O=C(CCN1C(=O)/C(=C/c2ccccc2)SC1=S)Nc1cccnc1	-8.2%	0.3%	.	-0.3%	2.9
O=C(CCN1C(=O)/C(=C/c2ccccc2)SC1=S)Nc1ccccn1	14.6µM*	3.3%	14.5%	-1.0%	-2.0
CCc1ccc(/C=C2/SC(=S)N(CCC(=O)Nc3cccnc3)C2=O)cc1	-11.3%	4.9%	3.6%	0.3%	53.6*
Cc1cccc(CN(Nc2ccccc2)c2ccccc2)n1	.	.	.	.	3.0
Cc1nn(-c2ccccc2)c(Cl)c1/C=N/NC(=O)CCNc1n[nH]c(=O)[nH]c1=O	0.0%	20µM*	1.8%	0.6%	2.1

By substructure, the entries above with a Cl atom.
SMILES	Rango release inh	A-T KAP1 phos	PKM2 activator	Rango complex inh	IL-2 act	others
O=C(C1=C(O)C(=O)N(c2nc3ccc(Cl)cc3s2)C1c1ccco1)c1ccco1 (stereo unspecified)	16.4µM*	-12.4%	.	?	0.0
N#Cc1nc(COc2ccccc2Cl)oc1NCc1cccnc1	20.6µM*	?	-4.7%	?	-1.2
N#Cc1nc(COc2ccccc2Cl)oc1NCc1ccc(F)cc1	?	5.5%	14.7%	-4.4%	-1.9
Cc1nn(-c2ccccc2)c(Cl)c1/C=N/NC(=O)CCNc1n[nH]c(=O)[nH]c1=O	0.0%	20µM*	1.8%	0.6%	2.1

Carrying on:
SMILES	Rango release inh	A-T KAP1 phos	PKM2 activator	Rango complex inh	IL-2 act	others
Cc1ccc(C)c(OCC(=O)N/N=C/c2c(C)nn(-c3ccccc3)c2Cl)c1	.	-2.1%	9.3%	.	.
CC(NC(=O)CCNC(=O)N1CCn2c1nc1ccccc12)c1ccccc1 (stereo unspecified)	26.0%	1.6%	-8.5%	6.8%	-2.6
Cc1cc(NC(=O)CON=C(N)CC(=O)Nc2ccccc2Cl)ccc1Br	-6.9%	5.1%	.	0.0%	-0.5
COc1ccc(F)cc1C(=O)C1CCCN(Cc2cccn2-c2cccnc2)C1 (stereo unspecified)	-20.2%	3.2%	35.5µM*	1.5%	0.3
CC[C@@H](C)CN1C(=O)N[C@@H](c2ccccc2)C(C(=O)OC)=C1C	.	.	3.2%[11.5 µM]	.	.
N#Cc1ccc(CSc2ncnc3c2cnn3Cc2ccccc2)cc1	5.7%	7.8%	20µM*	0.3%	-0.4	HeLa viability=-2.1
C[C@H](CO)N1C[C@H](C)[C@@H](CN(C)C(=O)Nc2ccccc2)Oc2ccc(NC(=O)Cc3ccccc3)cc2C1=O	-3.3%	-6.7%	.	2.8%	0.3
Cc1cc(C(=O)OCC(=O)N2CCOCC2)c2ccccc2n1	-13.8%	8.2%	3.55µM*	-2.3%	-3.2	HeLa viability=-0.1
Cn1c(SCC(=O)N/N=C/C=C\c2ccco2)nc2ccccc21	-16.7%	7.6%	7.08µM*	?	-2.2	HeLa viability=-2.6
CCn1c(SCC(=O)N/N=C/C=C\c2ccco2)nc2ccccc21	-18.5%	-8.8%	?	-1.4%	-3.7
Cc1cc2c(s1)c1cnn(Cc3ccc(S(C)(=O)=O)cc3)c(=O)c1n2C	.	.	.	.	.	HeLa viability=-14.7
Cc1cc2c(s1)c1cnn(-c3ccccc3)c(=O)c1n2C	-10.4%	-2.0%	.	0.5%	-0.3	HeLa viability=3.1
Cc1cc2c(s1)c1cnn(Cc3ccc(F)cc3)c(=O)c1n2C	.	.	.	.	.	HeLa viability=5.9
Cc1cc2c(s1)c1cnn(Cc3ccccc3)c(=O)c1n2C	.	.	.	.	.	HeLa viability=3.1
Cn1c2cc(C#N)sc2c2cnn(Cc3ccc(F)cc3)c(=O)c21	4.4%	-4.6%	.	2.7%	-0.3
COc1ccc(-c2cccc3c2NC(=O)C3=O)cc1OC	-23.7%	-2.0%	.	-2.3%	-1.5
Cc1cc2c(s1)c1cnn(Cc3ccccc3Cl)c(=O)c1n2C	.	.	.	.	.	HeLa viability=2.4
Cc1ccc(Cn2ncc3c4sc(C)cc4n(C)c3c2=O)cc1	.	.	.	.	.	HeLa viability=-2.2
Cc1cc2c(s1)c1cnn(Cc3ccc(F)cc3F)c(=O)c1n2C	.	.	.	.	.	HeLa viability=4.6
Cc1cc2c(s1)c1cnn(CC(=O)NCCc3ccccc3)c(=O)c1n2C	6.8%	1.0%	-4.0%	1.8%	0.3
Cc1ccc(-n2nc3c(=O)n(CCCC(=O)NCc4ccco4)nc(C)c3c2C)cc1	0.5%	-11.0%	.	-3.2%	-2.6

Pulled by structure from above, two records:
SMILES	Rango release inh	A-T KAP1 phos	PKM2 activator	Rango complex inh	IL-2 act	others
N#Cc1nc(COc2ccccc2Cl)oc1NCc1ccc(F)cc1	?	5.5%	14.7%	-4.4%	-1.9
CCc1ccccc1N=Cc1c(C)c(C#N)c2[nH]c3ccccc3n2c1=O	-16.2%	.	.	?	123.4*
